# In BindingDB's records for doi:10.1016/s0024-3205(03)00272-8 (Merck Research Laboratories, 2003):
# Amino acid sequences for entries named in this document (tags omitted).
# UniProt P31424, whole entry: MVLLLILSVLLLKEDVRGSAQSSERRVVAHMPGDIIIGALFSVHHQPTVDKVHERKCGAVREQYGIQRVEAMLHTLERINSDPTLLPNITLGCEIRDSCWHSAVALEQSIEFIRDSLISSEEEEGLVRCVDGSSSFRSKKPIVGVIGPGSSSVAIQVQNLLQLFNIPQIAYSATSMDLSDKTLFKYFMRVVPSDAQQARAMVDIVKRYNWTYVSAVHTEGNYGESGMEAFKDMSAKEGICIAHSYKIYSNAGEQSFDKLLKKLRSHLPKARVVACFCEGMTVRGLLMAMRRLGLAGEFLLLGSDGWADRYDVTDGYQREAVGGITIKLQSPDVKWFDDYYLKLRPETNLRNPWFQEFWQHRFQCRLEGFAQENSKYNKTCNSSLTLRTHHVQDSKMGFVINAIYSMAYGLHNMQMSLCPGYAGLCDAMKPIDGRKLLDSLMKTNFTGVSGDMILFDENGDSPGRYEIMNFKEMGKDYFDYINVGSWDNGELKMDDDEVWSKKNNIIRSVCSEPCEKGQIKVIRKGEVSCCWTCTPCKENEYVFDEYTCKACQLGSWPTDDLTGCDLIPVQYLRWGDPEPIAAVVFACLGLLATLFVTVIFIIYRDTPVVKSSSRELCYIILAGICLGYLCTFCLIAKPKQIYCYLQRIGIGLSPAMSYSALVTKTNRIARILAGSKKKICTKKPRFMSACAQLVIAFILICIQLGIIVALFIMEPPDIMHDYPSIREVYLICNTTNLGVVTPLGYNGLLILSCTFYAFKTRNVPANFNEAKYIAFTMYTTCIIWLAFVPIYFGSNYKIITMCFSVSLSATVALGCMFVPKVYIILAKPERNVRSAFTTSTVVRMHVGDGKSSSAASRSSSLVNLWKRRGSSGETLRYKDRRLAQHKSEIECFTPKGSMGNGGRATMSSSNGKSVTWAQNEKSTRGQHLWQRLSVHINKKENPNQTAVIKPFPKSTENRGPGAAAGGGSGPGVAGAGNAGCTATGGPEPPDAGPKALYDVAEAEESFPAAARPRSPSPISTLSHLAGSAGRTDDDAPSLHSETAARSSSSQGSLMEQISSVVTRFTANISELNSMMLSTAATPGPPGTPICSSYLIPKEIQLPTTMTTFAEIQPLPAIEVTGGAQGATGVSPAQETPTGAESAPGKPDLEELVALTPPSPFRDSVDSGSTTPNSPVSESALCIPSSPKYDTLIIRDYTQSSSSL
# Target: Metabotropic glutamate receptor 5 (Rattus norvegicus, UniProt P31424)
smiles,measurement,value
Cc1cccc(C#Cc2ccccc2)n1 [2-Methyl-6-phenylethynyl-pyridine],Ki,0.3 nM
